# Test results: US20090104171A1, “Metabolic Enhancement Therapy” (priority 2007, published 2009)
# Assay: Case study Example 4: person with acute anxiety disorder and depression
# Conditions: 2 years of treatment
smiles,measurement,value
Cc1nc2n(c(=O)c1CCN1CCC(c3noc4cc(F)ccc34)CC1)CCCC2 [Risperdol],side effects,negative side effects
